Screens deposited in PubChem BioAssay by National Center for Advancing Translational Sciences (NCATS).
Only some compounds are listed: those with a hit (about 2.2% of all), similar ones and a draw of the others.
GALK inhibitor = blocks human galactokinase activity; Purified GALK, Kinase-Glo residual ATP luminescence; AID 1868; Potency, µM (titrated, usually from 57.5 µM), for inactives: at the top dose activity change, negative = inhibition, usual class: inhibitors; 270,000 compounds, 0.007% hits; P51570; note: potency is the fitted concentration of half-maximal effect; % is set by controls: 0 for no effect and ±100 for the full control effect
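GALK at 5 nM final was combined with compound, 35 uM ATP and 100 uM galactose in HEPES pH8.0 with MgCl2 and DTT. The reaction ran one hour at room temperature before luminescent ATP detection.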
Nrf2 block = inhibitors of Nrf2 signaling | A549 ARE-Fluc reporter, luciferase luminescence, 18-24 h | Potency, µM (doses to about 46 µM), without a hit: top-dose activity change, negative = inhibition, actives largely listed as inhibitors | 360,000 compounds, 2.1% hits; note: potency is the fitted concentration of half-maximal effect; % is set by controls: 0 for no effect and ±100 for the full control effect; nearly all actives have a fitted effect of over 60% in size
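Reporter: ARE-Fluc in A549. Exposure: 18-24 h, 37 °C, 5% CO2, 5% FBS OPTI-MEM. Readouts: fluorescent cytotoxicity (CellTiter-Fluor), then luminescent Nrf2 signal after BugLite.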
Nrf2 ARE act = Nrf2 pathway activation; 410,000 compounds, 0.31% hits; Potency, µM (series often up to 46.1 µM), for the others: at the highest dose activation, usual class: activators; AREc32 ARE-luciferase reporter (MCF7-derived line), luminescence, 24 h; AID 624171; note: potency is the fitted concentration of half-maximal effect; % of control where 0% means no effect; nearly all actives have a fitted effect of over 65% in size
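Reporter line AREc32 (ARE-Fluc), seeded overnight in OPTI-MEM with 5% FBS; compound pin-transferred, 24 hr at 37 deg C, 5% CO2; luminescent read-out.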
miR-21 FLuc = raises the signal of a miR-21 reporter | AID 2288 | 340,000 tested, under 10 active | Potency, µM (series often up to 38.3 µM), without a hit: at the highest dose reporter change, positive = more light | HeLa miR-21 FLuc reporter, luciferase, 48 h; active = well fitted rising curve with a large enough effect; inconclusive = small, poorly fitted or top-dose-only effect; inactive = no such curve, though single readings can be large or run the other way;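 further: % of control where 0% means no effect; miR-21 action dims this reporter so a rising signal means less miR-21 action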
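HeLa cells stably expressing CMV-driven firefly luciferase with a downstream miR-21 binding sequence, endogenously expressing miR-21, were treated with titrations (up to about 40uM final) for 48 hours at 37 degree Celsius. Luciferase luminescence was read after lysis.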
PI4K2A block = PI4K2A (human) kinase inhibition; Q9BTU6; purified PI4K2A, ADP-Glo luminescence, 1 h; stronger effect = lower value; activity change, negative = inhibition, % at 76.9 µM; 420,000 compounds, 0.13% hits; AID 1346378; in the data active = activity change below about -50%; inconclusive = mostly about -30% to -49%;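 note: -100% = wells without enzyme as full effect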
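ADP-Glo luminescence measured ADP generated by PI4K2A enzyme (4 ug/mL before mixing) with 1.2 mM PI substrate (pre-mix) and 300 microM ATP (pre-mix). Tris pH7.5 buffer with MgCl2, Triton X-100; 1 h reaction at ambient temperature.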
A549 tox = kills or reduces viability of A549 cells in Nrf2 counter-screen. Potency, µM (titrated, usually from 46 µM), inactives show top-dose activity change, negative = cytotoxicity, most hits filed as inhibitors. A549 ARE-Fluc cells, CellTiter-Fluor viability, 18-24 h. AID 504648. 390,000 compounds, 0.16% hits; note: potency is the fitted concentration of half-maximal effect; % is set by controls: 0 for no effect and ±100 for the full control effect
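Cytotoxicity counterscreen: CellTiter-Fluor fluorescence was measured in A549 ARE_Fluc cells after 18-24 h of compound exposure in a concentration series. The subsequent BugLite luminescent read reports ARE-luciferase activity.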
Active calls of the source: *; ? = inconclusive; / = no result; [ ] = remark or other dose. Unless noted, calls come from the whole dose curve; as a rule, active = well fitted curve in the direction sought with a large enough effect; inconclusive = small, poorly fitted or top-dose-only effect, or another doubt; inactive = no such curve, though single readings can be large; an effect the other way counts as inactive or inconclusive.

A first look, two compounds:
(1) O=C(NC1CCCC1)c1sc(=S)n2c1[nH]c(=O)c1ccccc12
(2) O=S(=O)(c1ccccc1)N1CCN(c2nc(C3CC3)nc3ccccc23)CC1

| Assay by compound | 1 | 2 |
| --- | --- | --- |
| GALK inhibitor | -7% | / |
| Nrf2 block | 16µM* | -10% |
| Nrf2 ARE act | 2% | / |
| miR-21 FLuc | -7% | / |
| PI4K2A block | 5 | / |
| A549 tox | ? | 5% |

The whole of this part (from the top)
(1) O=C(NC1CCCC1)c1sc(=S)n2c1[nH]c(=O)c1ccccc12
(2) O=S(=O)(c1ccccc1)N1CCN(c2nc(C3CC3)nc3ccccc23)CC1
(3) Cc1ccc(-n2c(O)c(C=Nc3cc(C)on3)c3ccccc3c2=O)c(C)c1
(4) Cc1cc(N=Cc2c(O)n(-c3ccc(C)c(C)c3)c(=O)c3ccccc23)no1
(5) O=C(OCC#CCSc1nnc(-c2cccc3ccccc23)o1)c1cc2ccccc2s1
(6) CC(=O)N1CCSc2ccc(S(=O)(=O)NCCc3ccc(Cl)cc3)cc21
(7) CC(=O)N1CC(C)Sc2ccc(S(=O)(=O)NCCc3ccc(C)cc3)cc21 (stereo not drawn)
(8) CC(=O)N1CCSc2ccc(S(=O)(=O)NCCc3ccc(C)cc3)cc21

| Assay by compound | 1 | 2 | 3 | 4 | 5 | 6 | 7 | 8 |
| --- | --- | --- | --- | --- | --- | --- | --- | --- |
| GALK inhibitor | -7% | / | -3% | -2% | / | 1% | -2% | 2% |
| Nrf2 block | 16µM* | -10% | 23µM* | / | 7% | 15µM* | 7.3µM* | ? |
| Nrf2 ARE act | 2% | / | 0%[9.22 µM] | / | / | 0% | 0% | 3% |
| miR-21 FLuc | -7% | / | 19% | -2% | / | 18% | 13% | 10% |
| PI4K2A block | 5 | / | 1 | / | / | 0 | 2 | -4 |
| A549 tox | ? | 5% | ? | / | -7% | -18% | -11% | -4% |

(9) C[C@H](CO)N1C[C@H](C)[C@@H](CN(C)C(=O)NC2CCCCC2)Oc2c(NC(=O)CCC(F)(F)F)cccc2C1=O
(10) Cc1noc(C)c1S(=O)(=O)N(C)C[C@H]1Oc2c(NC(=O)Nc3ccc(C(F)(F)F)cc3)cccc2C(=O)N([C@H](C)CO)C[C@@H]1C
(11) C[C@H](CO)N1C[C@H](C)[C@@H](CN(C)CC2CCCCC2)Oc2c(NC(=O)CCC(F)(F)F)cccc2C1=O
(12) COc1ccc(C(=O)N(C)[C@H]2C[C@H]3c4[nH]c5cccc(-c6ccccc6)c5c4CCN3C[C@H]2[C@H](C)O)cc1
(13) CCO[C@H]1OC(C(=O)N2CCN(Cc3ccccc3)CC2)=C[C@@H](c2ccccc2)[C@@H]1CCCO
(14) CCO[C@H]1OC(C(=O)N2CCN(Cc3ccccc3)CC2)=C[C@@H](c2ccc(C(F)(F)F)cc2)[C@@H]1CCCO
(15) Cc1ccc(-c2noc(CSc3nnc(-c4ccncc4)n3-c3ccc(C)cc3)n2)cc1
(16) Cc1ccc(-n2c(SCc3nc(-c4ccc(Cl)cc4)no3)nnc2-c2ccncc2)cc1

| Assay by compound | 9 | 10 | 11 | 12 | 13 | 14 | 15 | 16 |
| --- | --- | --- | --- | --- | --- | --- | --- | --- |
| GALK inhibitor | / | / | / | / | -2% | 1% | -1% | / |
| Nrf2 block | -4% | 21µM* | 18µM* | / | 14% | 29µM* | ? | 23µM* |
| Nrf2 ARE act | 0% | 9% | -1% | / | 0% | 0% | -1% | 5% |
| miR-21 FLuc | / | / | / | / | 6% | ? | 4% | 1% |
| PI4K2A block | 3 | 0 | -4 | -2 | 0 | 2 | 1 | -1 |
| A549 tox | 6% | -20% | -26% | / | -2% | ? | -15% | -24% |

(17) Cc1ccc(-c2noc(CSc3nnc(C)n3-c3ccc(C)c(C)c3)n2)cc1
(18) Cc1ccc(-c2noc(CSc3nnc(C)n3-c3ccc(C)cc3)n2)cc1
(19) Clc1ccccc1-c1nnc(SCc2nc(-c3ccccc3)no2)n1-c1ccccc1
(20) Cc1cc2c(s1)c1cnn(Cc3ccc(C)c(F)c3F)c(=O)c1n2C
(21) COc1ccccc1NC(=O)OCCN1CCCC12CCC(c1ccccc1)CC2 (stereo not drawn)
(22) O=C(Nc1ccc(Cl)cc1)O[C@@H]1CC[C@@]23CCCN2C(=O)CCC[C@H]3C1
(23) CC1=C2NC(N)=[N+](Cc3ccccc3)CC2n2c(=O)n(-c3ccccc3)c(=O)n2C1 (stereo not drawn)
(24) Oc1c(N=Nc2ccccc2)sc2ccccc12

| Assay by compound | 17 | 18 | 19 | 20 | 21 | 22 | 23 | 24 |
| --- | --- | --- | --- | --- | --- | --- | --- | --- |
| GALK inhibitor | / | / | / | / | / | / | / | 8% |
| Nrf2 block | 16µM* | ? | 15µM* | 8% | / | / | / | 21% |
| Nrf2 ARE act | 5% | 2% | -1% | / | / | / | / | 2.8µM* |
| miR-21 FLuc | 6% | -5% | ? | / | / | / | / | -11% |
| PI4K2A block | -2 | 1 | 6 | / | 3 | -2 | -7 | -14 |
| A549 tox | -12% | 3% | -29% | -2% | / | / | / | 7% |

(25) CC(=Nc1ccc(O)cc1)c1sc2ccccc2c1O
(26) CCc1ccc(-c2cc(C)no2)cc1S(=O)(=O)NCCN1CCC(C)CC1
(27) CCc1ccc(-c2cc(C)no2)cc1S(=O)(=O)NCCCN1CCN(c2ccccc2)CC1
(28) O=C(N/N=C/c1ccc([N+](=O)[O-])o1)C(=O)Nc1ccc(C(=O)O)cc1
(29) O=C(O)c1ccc(N/N=C/C=C/c2ccc([N+](=O)[O-])o2)cc1
(30) O=C(c1ccncc1F)N1CCC(n2nnc3ncccc32)CC1
(31) CCN(CCNC(=O)[C@H]1C=C(OC)C(=O)C[C@H](c2ccccc2)[C@H]1C)C(C)=O
(32) Cc1c(Cl)cccc1NC(CC(=O)c1ccccc1)C(=O)O (stereo not drawn)

| Assay by compound | 25 | 26 | 27 | 28 | 29 | 30 | 31 | 32 |
| --- | --- | --- | --- | --- | --- | --- | --- | --- |
| GALK inhibitor | 0% | -3% | -9% | 7% | 9% | / | / | 0% |
| Nrf2 block | ? | 0% | 13µM* | 5% | ? | / | / | 7% |
| Nrf2 ARE act | ? | 0% | 1% | 0% | 14µM* | / | / | 16µM* |
| miR-21 FLuc | -37% | -4% | ? | 2% | -30% | / | / | -57% |
| PI4K2A block | -11 | 0 | -2 | 6 | -17 | -1 | 1 | -21 |
| A549 tox | -25% | 8% | -28% | -7% | ? | / | / | -3% |

Next part, overlapping the part above by 2 compounds.
(31) CCN(CCNC(=O)[C@H]1C=C(OC)C(=O)C[C@H](c2ccccc2)[C@H]1C)C(C)=O
(32) Cc1c(Cl)cccc1NC(CC(=O)c1ccccc1)C(=O)O (stereo not drawn)
(33) O=C(CC(Nc1ccccc1Cl)C(=O)O)c1ccccc1 (stereo not drawn)
(34) Cc1ccc(N/C(N)=N/c2nc(C)cc(N3CCCCC3)n2)c(C)c1
(35) Cc1ccc(N/C(N)=N/c2nc3c(c(=O)[nH]2)CCCC3)c(C)c1
(36) Cc1nc2ccccc2n1/N=C/c1ccc([N+](=O)[O-])o1
(37) Cc1n[nH]c(=S)n1/N=C/c1ccc(-c2ccccc2[N+](=O)[O-])o1
(38) COC(=O)c1cc2c(n1S(=O)(=O)c1ccc(C)cc1)C(=O)C(=O)c1[nH]cc(C(=O)OCc3ccccc3)c1-2
(39) CCc1ccc2[nH]c(=O)c(C3C(C#N)=C(N)Oc4c3ccc3cccnc43)cc2c1 (stereo not drawn)
(40) CCCCN1C(C(=O)c2ccccc2)=C(OC(C)=O)c2ccccc2S1(=O)=O

| Assay by compound | 31 | 32 | 33 | 34 | 35 | 36 | 37 | 38 | 39 | 40 |
| --- | --- | --- | --- | --- | --- | --- | --- | --- | --- | --- |
| GALK inhibitor | / | 0% | -3% | 5% | / | / | -2% | / | 0% | / |
| Nrf2 block | / | 7% | ? | 13µM* | -33% | 21µM* | / | 4.1µM* | 15µM* | 8.2µM* |
| Nrf2 ARE act | / | 16µM* | ? | 0% | 0% | 0% | 10µM* | -2% | 0% | -3% |
| miR-21 FLuc | / | -57% | -49% | ? | -8% | / | 0% | / | 18% | ? |
| PI4K2A block | 1 | -21 | -3 | -6 | 0 | -5 | 5 | -21 | -3 | 4 |
| A549 tox | / | -3% | 2% | ? | -17% | ? | ? | 4.1µM* | ? | ? |

(41) O=S(=O)(NCCNc1nc(-c2ccco2)nc2ccccc12)c1ccccc1
(42) COc1cc(NS(=O)(=O)c2ccc(C)cc2C)cc(OC)c1OC
(43) O=C1c2ccccc2-c2onc3ccc(Oc4ccccc4)c1c23
(44) Cc1nnc(C)n1N=Cc1ccc(O)cc1O

| Assay by compound | 41 | 42 | 43 | 44 |
| --- | --- | --- | --- | --- |
| GALK inhibitor | / | -2% | -1% | / |
| Nrf2 block | 12% | 10µM* | ? | / |
| Nrf2 ARE act | / | 0% | 7.1µM* | / |
| miR-21 FLuc | / | 30% | -4% | / |
| PI4K2A block | / | 2 | 3 | -5 |
| A549 tox | -3% | -21% | ? | / |
